Reference: ChEMBL document CHEMBL1157133, “Design, synthesis, and interaction study of quinazoline-2(1H)-thione derivatives as novel potential Bcl-xL inhibitors” (J Med Chem, 2010)

System: PC-3
Test: Cytotoxicity against human PC3 cells after 48 hrs by MTT assay
Assay type: functional, cell-based

| Structure (SMILES) | Activity |
| --- | --- |
| O=C(O)COc1cccc(/C=c2\sc3n(c2=O)C(c2cccc(F)c2)C2=C(N=3)/C(=C/c3cccc(F)c3)CCC2)c1 (configuration not stated) | Dose-dependent effect |
| COc1ccccc1C1C2=C(N=c3s/c(=C\c4ccc(OCC(=O)O)cc4)c(=O)n31)c1ccccc1CC2 (configuration not stated) | Dose-dependent effect |
| COc1ccccc1C1C2=C(N=c3s/c(=C\c4ccc(-c5cccc(C(=O)O)c5)o4)c(=O)n31)c1ccccc1CC2 (configuration not stated) | Dose-dependent effect |
| O=C(O)c1cccc(-c2ccc(/C=c3\sc4n(c3=O)C(c3ccccc3)C3=C(N=4)c4ccccc4CC3)o2)c1 (configuration not stated) | Dose-dependent effect |
| O=C(O)COc1cccc(/C=c2\sc3n(c2=O)C(c2ccccc2)C2=C(N=3)c3ccccc3CC2)c1 (configuration not stated) | Dose-dependent effect |
| O=C(O)c1cccc(-c2ccc(/C=c3\sc4n(c3=O)C(c3cccc(F)c3)C3=C(N=4)/C(=C/c4cccc(F)c4)CCC3)o2)c1 (configuration not stated) | Dose-dependent effect |
| CCOC(=O)COc1cccc(/C=c2\sc3n(c2=O)C(c2ccccc2OC)C2=C(N=3)c3ccccc3CC2)c1 (configuration not stated) | Dose-dependent effect |
| O=C(O)COc1cccc(/C=c2\sc3n(c2=O)C(c2cccc4ccccc24)C2=C(N=3)c3ccccc3CC2)c1 (configuration not stated) | Dose-dependent effect |
| O=C(O)c1cccc(-c2ccc(/C=c3\sc4n(c3=O)C(c3ccccc3F)C3=C(N=4)c4ccccc4CC3)o2)c1 (configuration not stated) | Dose-dependent effect |
| COc1ccccc1C1C2=C(N=c3s/c(=C\c4ccc(-c5cccc(C(=O)O)c5)cc4)c(=O)n31)c1ccccc1CC2 (configuration not stated) | Dose-dependent effect |
| COc1ccccc1C1C2=C(N=c3s/c(=C\c4ccc(C(=O)O)cc4)c(=O)n31)c1ccccc1CC2 (configuration not stated) | Dose-dependent effect |
| COc1ccccc1C1C=C(c2ccccc2)N=c2s/c(=C\c3cccc(OCC(=O)O)c3)c(=O)n21 (configuration not stated) | Dose-dependent effect |
